Broadly, the IC50 is the concentration that inhibits the measured activity by half.

The target of this experiment is Replicase polyprotein 1ab (Severe acute respiratory syndrome coronavirus 2, UniProt P0DTD1). Description: Inhibition of SARS-CoV-2 recombinant main protease. In kind it is single protein.

As for `O=c1[nH]cc(-c2cc(-c3cc(Cl)cc(OCCC(F)(F)F)c3)c(=O)n(-c3cccnc3)c2)c(=O)[nH]1`, the IC50 was found to be 110 nM.

For the origin of these results see ChEMBL document CHEMBL5512603, “Development of de-novo coronavirus 3-chymotrypsin-like protease (3CLpro) inhibitors since COVID-19 outbreak: A strategy to tackle challenges of persistent virus infection” (Eur J Med Chem, 2024).
